# PubChem BioAssay AID588621 (Sanford-Burnham Center for Chemical Genomics, 2011)
# Sequences of proteins named here, by UniProt entry; tags and fusion partners are left off.
# UniProt P54829, whole entry: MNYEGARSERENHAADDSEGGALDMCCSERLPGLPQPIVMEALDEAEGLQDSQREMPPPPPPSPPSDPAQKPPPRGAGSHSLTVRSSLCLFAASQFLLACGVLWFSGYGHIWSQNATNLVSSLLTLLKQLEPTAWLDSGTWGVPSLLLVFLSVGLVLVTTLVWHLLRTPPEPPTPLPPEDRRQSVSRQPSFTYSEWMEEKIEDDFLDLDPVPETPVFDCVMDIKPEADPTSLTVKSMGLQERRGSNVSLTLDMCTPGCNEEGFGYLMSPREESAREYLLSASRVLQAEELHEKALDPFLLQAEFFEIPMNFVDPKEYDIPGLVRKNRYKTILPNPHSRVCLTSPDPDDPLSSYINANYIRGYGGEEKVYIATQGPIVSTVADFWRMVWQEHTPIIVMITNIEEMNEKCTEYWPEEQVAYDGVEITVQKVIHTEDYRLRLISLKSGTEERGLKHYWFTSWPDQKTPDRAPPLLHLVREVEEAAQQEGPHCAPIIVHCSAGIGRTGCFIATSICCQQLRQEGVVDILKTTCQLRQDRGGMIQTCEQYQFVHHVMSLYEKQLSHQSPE
# Only a part is listed here, and it is no random draw. The source made the active and inactive calls.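 Rule for the calls: active = inhibition at 20 µM, scaled per plate between control wells, above about 37% (limit read from the data); inactive = the rest.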
# Biological target: Tyrosine-protein phosphatase non-receptor type 5 (Homo sapiens) (UniProt P54829)
# Assay: inhibition of human PTPN5 enzyme activity – biochemical, fluorescence intensity, uHTS, primary screen (AID 588621);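 note: 0% = DMSO with enzyme and substrate and 100% = substrate only without enzyme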
# Conditions: recombinant STEP, OMFP fluorogenic substrate, at 20 µM, hits give high values
# How it was run: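 Also added – OMFP at 25 µM · Test system – STEP tyrosine phosphatase · Technique – FITC-channel fluorescence of OMFP product · Schedule – 20 min at room temperature, dark · Evaluation – control-normalized % inhibition with plate pattern correction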
row,Compound,inhibition
1,Cc1ccccc1NC1(C#N)CCN(Cc2ccccc2)CC1,inactive: -1.2%
2,COc1ccc(C(c2nnnn2C2CCCCC2)N2CCC(n3c(=O)[nH]c4ccccc43)CC2)cc1 (configuration not stated),inactive: 0.9%
3,CCN1CCC(Nc2cccc(F)c2)CC1,inactive: -1%
4,CC(C)(C)n1nnnc1C(c1ccnc2ccccc12)N1CCC(n2c(=O)[nH]c3ccccc32)CC1 (configuration not stated),inactive: 0.8%
5,O=C(NCC1(N2CCCCC2)CCCCC1)c1ccco1,inactive: 1.6%
6,CN(C)c1ccc(C(=O)NCC2(N3CCCCC3)CCCCC2)cc1,inactive: -2.6%
7,Cn1c(=O)[nH]cc(N(CCCl)CCCl)c1=O,inactive: 3.7%
8,COc1cccc(C(c2nnnn2C2CCCCC2)N2CCC(n3c(=O)[nH]c4ccccc43)CC2)c1OC (configuration not stated),inactive: 2.9%
9,CC(=O)N(c1ccccc1)C1CCNCC1,inactive: -4.6%
10,CCC(c1nnnn1C1CCCCC1)N1CCC(n2c(=O)[nH]c3ccccc32)CC1 (configuration not stated),inactive: -1.7%
11,COc1cc(OC)cc(C(=O)NCC2(N3CCCCC3)CCCCC2)c1,inactive: -1%
12,O=c1[nH]c2ccccc2n1C1CCN(C(c2ccnc3ccccc23)c2nnnn2C2CCCCC2)CC1 (configuration not stated),inactive: 6.9%
13,Cc1ccc(C(=O)NCC2(N3CCCCC3)CCCCC2)o1,inactive: -0.3%
14,Fc1ccccc1NC1CCN(Cc2ccccc2)CC1,inactive: -3.5%
15,Cc1ccc(NC2(C#N)CCN(Cc3ccccc3)CC2)cc1,inactive: 2%
16,COc1cccc(C(=O)N(c2cc(C)cc(C)c2)C2CCN(C(=O)OC(C)(C)C)CC2)c1,inactive: 2%
17,COc1cccc(C(c2nnnn2C2CCCC2)N2CCC(n3c(=O)[nH]c4ccccc43)CC2)c1OC (configuration not stated),inactive: 1.7%
18,COc1cc(OC)cc(C(=O)NCC2(N3CCOCC3)CCCCC2)c1,inactive: 0.5%
19,CCC(CO)(C(=O)OC1CN2CCC1CC2)c1ccccc1 (configuration not stated),inactive: -2.6%
20,CN1CCC(Nc2ccc(Cl)cc2)CC1,inactive: -4.3%
21,CCOc1ncccc1C(=O)NCC1(N2CCOCC2)CCCCC1,inactive: 0.1%
22,CN1CCC(Nc2ccc(F)c(Cl)c2)CC1,inactive: -4.1%
23,CC(C)(C)OC(=O)N1CCC(Nc2ccccc2)CC1,inactive: -1%
24,O=C(O)C1(Nc2ccccc2)CCN(Cc2ccccc2)CC1,inactive: -0.6%
25,O=c1[nH]c2ccccc2n1C1CCN(C(c2cc3ccccc3o2)c2nnnn2C2CCCC2)CC1 (configuration not stated),inactive: 0.2%
26,CCCOc1ccc(C(=O)NCC2(N(C)C)CCCCC2)cc1,inactive: -1.3%
27,CCOC(=O)N1CCC(Nc2ccc(C)cc2)CC1,inactive: -2.4%
